{"source": "patent US4296032A", "about": "(priority 1979, dated 1981)", "origin": "cited, not measured here", "conditions": "isomerisation to a mixture with the 6-α-compound; cited from earlier work"}
{"smiles": "CC1(C)S[C@@H]2[C@H](Br)C(=O)N2[C@H]1C(=O)O", "values": [{"measurement": "stability", "value": "tends to be unstable and is apparently readily isomerised to a mixture with the 6-α-compound"}]}
